# Screening results deposited in PubChem by several laboratories.
# Exocytosis inh: lytic granule exocytosis inhibition; TALL-104 LAMP-1 surface exposure, flow cytometry; cells stimulated with thapsigargin and PMA; inhibition, % at 10 µM; 0.66% of 360,000 active; AID 651702;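 active = inhibition above about 55%, limit read from the data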
# PKA-R2B activ: activators of human PKA-R2B complex | P22694+P31323 | PKA-R2B holoenzyme dissociation, Cy5-IP20 fluorescence polarization; R2B truncated from residue 108, S112A mutant; 0% DMSO only, 100% 113 µM cGMP | activation, % at 11.4 µM | 0.079% of 340,000 active;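 active = activation above a cutoff set at the mean over all compounds plus 3 SD, cut at about 18% in these data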;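 note: higher means more holoenzyme dissociation and a rise in polarization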
# Yeast UUG start: modulators of yeast start codon fidelity, primary screen, whole organism, S. cerevisiae, single point, plate reader | S. cerevisiae UUG-firefly luciferase reporter, luminescence/redox ratio | activity score, % at 18.7 µM | hit rate 0.13% among 350,000;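 active = replicate mean at a twofold rise or more, about +100% in these data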;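 note: firefly luciferase made from a UUG start codon reports start codon fidelity; reporter light over untreated wells divided by growth signal over untreated wells; some hits fall short of that in this replicate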
# p-CIP stab down: compounds decreasing mouse p/CIP protein stability | Q05BA5 | F442A p/CIP-EGFP cells, EGFP fluorescence, 16 h | decrease of EGFP signal, % at 10 µM | 0.01% of 290,000 active;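 active = EGFP signal decrease of at least 30% at 10 µM or well 3 SD below plate mean, unless failing retest; inactive = the rest, including hits failing retest or dose response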
# ABCB6 inh 2: human ABCB6 transporter inhibition; K562-ABCB6 porphyrin accumulation, flow cytometry, 1 h; active compounds read low; fluorescence ratio to DMSO, % at 10 µM; 0.19% of 360,000 active; AID 602162;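 active = fluorescence ratio to DMSO below 75%, the collection mean minus 3 SD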;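 note: signal is porphyrin accumulated inside mitochondria; 100% equals median channel fluorescence of DMSO control wells; lower ratio means ABCB6 inhibition with less porphyrin fluorescence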
# PKA-R1A act: activates the PKA-R1A holoenzyme complex; P00514+P68181; PKA-R1A dissociation, Cy5-IP20 fluorescence polarization; scaled: DMSO 0%, 113 µM cGMP 100%; activation, % at 11.4 µM; 0.083% of 340,000 active; AID 504707;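 active = percent activation above the mean of all tested compounds plus 3 SD, cut at about 19% in these data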;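 note: higher means more PKAc released from R1A so a rise in polarization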
# Active calls of the source: *; x = no result. Only some compounds are listed: those with a hit (about 0.94% of all), similar ones and a draw of the others.
# Each structure is followed by: p-CIP stab down	ABCB6 inh 2	Exocytosis inh	PKA-R2B activ	PKA-R1A act	Yeast UUG start
> CSc1nc(Nc2ccc(Cl)cc2)c(C#N)c(=O)[nH]1
    -9.2	97.0	18.9	4.9	-7.8	-6.3
> N#Cc1c(Nc2ccc(Cl)cc2)s[nH]c1=O
    4.3	104.0	82.7*	-0.1	4.5	x
> O=Cc1cc(N=Nc2cccc(C(=O)O)c2)ccc1O
    0.0	106.0	52.0	-7.2	0.0	x
> O=Cc1cc(N=Nc2ccccc2Cl)ccc1O
    5.0	93.0	62.4*	-3.3	6.8	x
> CC(C)NC(=O)NCC[C@@H]1CC[C@H](NS(=O)(=O)c2ccc(-c3ccccc3)cc2)[C@@H](CO)O1
    x	x	x	x	x	3.5
> C[C@@H](NC(=O)C[C@H]1CC[C@@H]2[C@H](COC[C@H](O)CN2C(=O)Nc2cc(Cl)cc(Cl)c2)O1)c1ccccc1
    x	x	x	x	x	5.1
> CCOC(=O)C1=C(Cc2ccc(Cl)cc2)C(=O)c2ccccc2C1=O
    -26.4	557.0	93.2*	-1.8	-8.7	-20.6
> CCOC(=O)C1=C(C)N=C2c3ccccc3C(=O)C2C1c1ccc(Cl)cc1 (stereo not drawn)
    -9.1	109.0	12.8	-7.5	-9.8	x
> CC/C(=C\C1CCCCC1)C(NP(=O)(c1ccccc1)c1ccccc1)c1ccccc1 (stereo not drawn)
    0.9	89.0	59.2*	-14.7	-0.7	-8.2
> O=C(C[C@H]1C=C[C@H](NS(=O)(=O)c2cccc(F)c2)[C@H](CO)O1)NCc1ccc2c(c1)OCO2
    x	x	x	x	x	-8.3
> Cc1nc2ccccn2c1C(=O)N=Nc1c(O)n(CCC(C)C)c2ccccc12
    -11.7	90.0	70.7*	-12.8	-5.4	-10.9
> CN(C)S(=O)(=O)N1CCN(c2cccc(Cl)c2)CC1
    7.0	95.0	-1.7	2.0	-1.2	-8.4
> O=S(=O)(/C=C/c1ccccc1)N1CCN(c2cccc(Cl)c2)CC1
    1.9	69.0*	-3.5	2.5	-6.2	-2.7
> NC(N)=NN=C(c1ccc(F)cc1)c1ccc(C(F)(F)F)cc1
    x	103.0	57.0*	5.1	10.2	x
> COc1ccccc1NC(=O)N1C[C@H](O)COC[C@@H]2O[C@H](CC(=O)NCCc3ccccc3)CC[C@H]21
    x	x	x	x	x	15.0

# Each structure is followed by: p-CIP stab down	ABCB6 inh 2	Exocytosis inh	PKA-R2B activ	PKA-R1A act	Yeast UUG start
> COc1ccc(-c2ccc3c(c2)[C@H]2[C@H](CCN2S(=O)(=O)c2ccc(OC)cc2)[C@@H](CO)N3)cc1
    x	x	x	x	x	-11.7
> O=C(NCc1cccnc1)/C(=C\c1ccc(-c2ccc(Cl)c(Cl)c2)o1)S(=O)(=O)c1ccccc1
    -13.3	88.0	100.7*	-14.4	-12.5	-4.9
> O=C(NCc1cccnc1)c1ccc(-c2ccc(Cl)cc2)o1
    -19.7	97.0	-2.7	-1.1	5.8	x
> O=C1S/C(=C\c2ccc(N3CCOCC3)o2)C(=O)N1Cc1c(F)cccc1Cl
    -21.8	283.0	87.7*	5.0	5.8	2.7
> O=C1S/C(=C/c2ccc(N3CCOCC3)o2)C(=O)N1Cc1c(F)cccc1Cl
    -18.6	275.0	105.6*	3.3	-0.9	-11.9
> O=C1N=C(N2CCOCC2)S/C1=C/c1ccc(-c2ccccc2Cl)o1
    -8.9	101.0	1.9	-4.8	-4.5	-16.8
> Clc1ccc(N=c2ssnc2Cl)nc1
    -21.4	99.0	87.1*	-15.3	-7.9	x
> Clc1nssc1=Nc1nncs1
    x	99.0	-4.1	-0.7	-1.7	-3.3
> Clc1nssc1=Nc1ccc(Br)cc1
    -0.4	95.0	59.0*	3.1	-4.6	x
> C[C@@H]1CN([C@@H](C)CO)C(=O)c2cc(NC(=O)Nc3ccccc3)ccc2O[C@@H](C)CCCCO[C@@H]1CN(C)C(=O)C1CCCCC1
    x	x	x	x	x	2.1
> Cc1ccc(S(=O)(=O)c2ccc([N+](=O)[O-])o2)cc1
    x	50.0*	49.8	-5.9	-7.5	x
> Cc1noc(C)c1S(=O)(=O)Nc1ccc2c(c1)C(=O)N([C@H](C)CO)C[C@@H](C)[C@@H](CN(C)S(=O)(=O)c1cccs1)OCCCC[C@@H](C)O2
    x	x	x	x	x	4.3
> CCOc1ccccc1N(C(=O)c1snc(C(N)=O)c1N)C(C(=O)NC1CCCC1)c1cccs1 (stereo not drawn)
    -9.7	97.0	74.4*	12.4	3.1	-4.0
> C#CC(=O)N(c1ccc(OC)c(OC)c1)C(C(=O)NC1CCCC1)c1cccs1 (stereo not drawn)
    -12.3	55.0*	44.7	5.6	-9.5	-8.5

# One compound at a time, as listed above. Order of values: p-CIP stab down	ABCB6 inh 2	Exocytosis inh	PKA-R2B activ	PKA-R1A act	Yeast UUG start
# O=Cc1cc(N=Nc2cccc(C(=O)O)c2)ccc1O in the list: 0.0	106.0	52.0	-7.2	0.0	x
# CSc1nc(Nc2ccc(Cl)cc2)c(C#N)c(=O)[nH]1 in the list: -9.2	97.0	18.9	4.9	-7.8	-6.3
# N#Cc1c(Nc2ccc(Cl)cc2)s[nH]c1=O in the list: 4.3	104.0	82.7*	-0.1	4.5	x
